Measured values taken from patent US5916925A, “Pharmaceutical composition for treatment of dementia” (Takeda Chemical Industries, Ltd., priority 1996, dated 1999).

Tests used:
[1] = test system: patients with senile dementia of Alzheimer's type; test: double-blind placebo controlled multicenter study, efficacy parameters (ADAS, CGI, NOSGER, SKT); type: in vivo, human
Method: In patients with senile dementia of Alzheimer's type, a double-blind placebo controlled multicenter comparative study was conducted under the conditions shown below.
(1) Placebo administration
Oral administration just after every meal

rats = conditions: rat, in vivo
in vivo = conditions: rat, acute toxicity LD50

COC1=C(OC)C(=O)C(CCCCCCCCCCO)=C(C)C1=O [idebenone, 6-(10-hydroxydecyl) -2,3-dimethoxy-5-methyl-1,4-benzoquinone]
CGI Therapeutic Effect, differences among groups ([1]; 90 mg, 120 mg 3-times-a-day and placebo): significant differences among the three groups were noted, with dose dependency | ADAS Cognitive Score, therapeutic effect ([1]; period exceeding 6 months): excellent | ADAS Sum Score, therapeutic effect ([1]; period exceeding 6 months): excellent | CGI Global Improvement, therapeutic effect ([1]; period exceeding 6 months): excellent | CGI Severity of Disease, therapeutic effect ([1]; period exceeding 6 months): excellent | CGI Therapeutic Effect, therapeutic effect ([1]; period exceeding 6 months): excellent | NOSGER IADL, therapeutic effect ([1]; period exceeding 6 months): excellent | NOSGER Sum Score, therapeutic effect ([1]; period exceeding 6 months): excellent | SKT, therapeutic effect ([1]; period exceeding 6 months): excellent | acute toxicity LD50 (rats): about 10,000 mg/kg | LD50 (in vivo): ≥ 10000 mg/kg
